Results on three compounds are retold here after patent publication US6087376A (priority 1998, dated 2000).

By UniProt entry, the sequences of proteins in these tests, tags left out.
UniProt Q01827, whole entry: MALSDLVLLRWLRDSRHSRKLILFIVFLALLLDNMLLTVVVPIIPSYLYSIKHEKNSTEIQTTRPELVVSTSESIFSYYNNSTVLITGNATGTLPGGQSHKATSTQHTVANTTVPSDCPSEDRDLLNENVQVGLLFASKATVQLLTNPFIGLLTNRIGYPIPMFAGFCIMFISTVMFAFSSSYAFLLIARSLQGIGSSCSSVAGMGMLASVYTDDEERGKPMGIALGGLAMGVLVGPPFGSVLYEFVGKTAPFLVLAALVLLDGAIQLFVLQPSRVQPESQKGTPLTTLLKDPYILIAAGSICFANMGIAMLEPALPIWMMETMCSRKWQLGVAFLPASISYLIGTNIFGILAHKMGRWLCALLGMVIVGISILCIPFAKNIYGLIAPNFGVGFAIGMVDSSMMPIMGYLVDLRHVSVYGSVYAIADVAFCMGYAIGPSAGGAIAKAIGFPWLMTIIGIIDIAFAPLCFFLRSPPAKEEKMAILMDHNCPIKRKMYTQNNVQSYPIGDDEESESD

Experiment [1] deals with T1, vesicular monoamine transporter-2 (VMAT2), DTBZ/TBZ site, rat striatal vesicle membranes (Rattus norvegicus, UniProt Q01827).
T1 construct: from tissue; host or cells: rat striatum, synaptic vesicles
Nature of the experiment: [3H]DTBZ binding to rat striatal vesicles.

The target of experiment [2] is T2, synaptic vesicular monoamine transporter (VMAT2), rat striatal synaptic vesicles (Rattus norvegicus, UniProt Q01827).
T2 construct: from tissue; host or cells: rat striatum, synaptic vesicles
As to the kind of experiment: [3H]DA uptake assay, striatal synaptic vesicles. Type of experiment: biochemical. The method, then: The homogenate was then centrifuged at 2,000×g for 10 min at 4° C. and the resulting supernatant was centrifuged at 10,000×g for 30 min at 4° C. Synaptosomes (buffy coat) were separated from the underlying mitochondria and cellular debris (reddish pellet) by gentle swirling in 2 mL of 0.32 M sucrose. The enriched synaptosome fraction (2.0 mL) was subjected to osmotic shock by addition of 7 mL distilled H2 0 and was homogenized with 5 up and down strokes of the TEFLON pestle. The osmolarity was restored by the addition of 900 μL of 0.25 M HEPES and 900 μL of 1.0 M neutral potassium-tatrate buffer (pH 7.5) followed by a 20 min centrifugation (20,000×g at 4° C.). The supernatant was then centrifuged for 60 min (55,000×g at 4° C.).
Samples were rapidly filtered through Whatman GF/F filters using the Brandel cell harvester.
Inhibition of synaptosomal and vesicular [^3 H]DA uptake were analyzed by repeated-measures, one-way ANOVA, and by an iterative nonlinear least-squares curve-fitting program (GraphPAD-PRIZM; GraphPAD, San Diego, Calif.) to obtain IC50 values. Dunnett's post hoc test was used to compare treatment means to a single control mean. Also, Duncan's New Multiple Range Test or Fisher's LSD post hoc analysis were used to compare pairs of treatment means. Duncan's New Multiple Range Test was used when significant one-way ANOVA's were obtained or when significant main effects were obtained in the two-way ANOVA's. Fisher's LSD post hoc analysis is a more conservative test, which takes into account error which cumulates during multiple comparisons of pairs of means. Fisher's LSD analysis was used when the interaction term was significant in the two-way ANOVAs, specifically in the post hoc analysis of drug×time interactions. Statistical significance was reached when P<0.05 (two-tailed, unless otherwise indicated).

As for `CN1[C@@H](CC(=O)c2ccccc2)CCC[C@H]1C[C@H](O)c1ccccc1` [Lobeline, 2-[G-(β-hydroxyphenethyl)-1-methyl-2-piperidyl]-acetophenone], the “lowest concentration to significantly inhibit [3H]DTBZ binding” value in experiment [1] (2 nM [3H]DTBZ) is 0.3 µM. In addition, in experiment [2], the “concentration giving complete inhibition of vesicular [3H]DA uptake” value turned out to be 10 µM and the “lowest concentration to produce significant inhibition of vesicular [3H]DA uptake” value was found to be 0.3 µM.

`COc1cc2c(cc1OC)C1CC(=O)C(CC(C)C)CN1CC2` (centres unmarked) [Tetrabenazine]: in experiment [2], the “concentration giving complete inhibition of vesicular [3H]DA uptake” value turned out to be 1 µM and the “lowest concentration to produce significant inhibition of vesicular [3H]DA uptake” value came to 0.07 µM. For the same compound, the IC50 in experiment [2] (tetrabenazine, read-out: IC50, inhibition of striatal vesicular [3H]DA uptake) stood at 77.7 ± 1.3 nM.

`COc1cc2c(cc1OC)C1CC(O)C(CC(C)C)CN1CC2` (centres unmarked) [[3H]DTBZ]: the “specific binding as share of total binding” value in experiment [1] (0.5-10 nM [3H]DTBZ) is reported as 60-80%. For the same compound, the “Bmax, [3H]DTBZ binding (Scatchard)” value in experiment [1] (0.5-10 nM, 10 min, 25° C.) turned out to be 8.68 pmol/mg protein.
